Experimental data as given in patent US9447023B2, “Curcumin and tetrahydrocurcumin derivatives” (Research Foundation of the City University of New York, priority 2006, dated 2016).

Test: Molar extinction coefficient of curcumin analogs (UV-visible)
Type: physicochemical
Conditions: in M-1 cm-1 (unit assumed)
Excerpt: Each curcumin derivative is bioconjugated to create a biopolymer that can be used as an eco-friendly dye. For example, compounds 1b and 1d can be conveniently conjugated to the lysine residues of proteins, the azide and the alkyne derivatives can be attached to proteins via the ‘click’ bioconjugation reaction. Compounds 1c and 1e have the advantage that unlike most reactive groups which are used for bioconjugation, alkyne and azide groups are stable in aqueous media (Scheme 5). The absorbance and fluorescence properties of these dyes are similar to the parent molecule.
Reagent-grade solvents such as acetone and tetrahydrofuran were used without further purification. For High Performance Liquid Chromatography (HPLC), methylene chloride was used with Pure Solv™ solvent purification system. Curcumin was obtained from Acros-Organics. Copper acetate and sodium ascorbate were purchased from Sigma. Silica gel 60 F 254 plates for thin-layer chromatography (TLC) were purchased from Merck. Column chromatographic separations were carried out using silica gel (Fisher) with a particle size of 0.040-0.063 mm. Nuclear magnetic resonance (NMR) was recorded on Bruker Avance 600 (600 MHz) spectrometers. Mass spectra (ES-MS) were recorded on a LC/MS and Time Of Flight (TOF) mass spectrometer. U.V.-Visible spectra were recorded using a ChemStation Rev. A.10.01 from Agilent Technologies

Question: Which “Molar Extinction Coeffecient” value does the source give for Curcumin Acrylate here?
Answer: 46874
